Assay results: ChEMBL document CHEMBL3407461 (J Med Chem, 2014)

The chains behind the UniProt entries cited, without tags or fusion partners.
UniProt Q60612, whole entry: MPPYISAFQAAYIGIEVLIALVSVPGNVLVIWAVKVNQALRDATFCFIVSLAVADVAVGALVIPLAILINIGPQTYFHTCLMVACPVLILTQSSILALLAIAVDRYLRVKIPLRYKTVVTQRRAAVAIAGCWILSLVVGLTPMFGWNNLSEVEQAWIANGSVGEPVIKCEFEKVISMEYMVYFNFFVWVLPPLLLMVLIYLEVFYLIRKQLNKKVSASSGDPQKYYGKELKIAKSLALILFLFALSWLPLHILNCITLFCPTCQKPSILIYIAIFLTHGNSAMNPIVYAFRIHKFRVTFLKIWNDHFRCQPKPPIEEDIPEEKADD
UniProt P33261, whole entry: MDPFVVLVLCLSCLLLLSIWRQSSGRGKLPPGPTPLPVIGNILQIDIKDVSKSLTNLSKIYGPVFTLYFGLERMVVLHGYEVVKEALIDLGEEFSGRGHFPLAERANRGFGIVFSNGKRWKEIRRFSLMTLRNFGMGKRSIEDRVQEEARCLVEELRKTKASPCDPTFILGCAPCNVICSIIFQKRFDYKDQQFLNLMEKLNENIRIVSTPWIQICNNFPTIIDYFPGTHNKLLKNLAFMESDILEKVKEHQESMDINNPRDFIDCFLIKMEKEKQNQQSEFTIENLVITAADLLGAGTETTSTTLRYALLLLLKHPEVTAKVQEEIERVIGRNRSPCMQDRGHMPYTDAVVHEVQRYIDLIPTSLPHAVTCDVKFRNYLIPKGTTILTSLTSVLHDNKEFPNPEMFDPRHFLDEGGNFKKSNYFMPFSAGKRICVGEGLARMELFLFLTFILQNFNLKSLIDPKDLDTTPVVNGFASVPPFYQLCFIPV
UniProt P05177, whole entry: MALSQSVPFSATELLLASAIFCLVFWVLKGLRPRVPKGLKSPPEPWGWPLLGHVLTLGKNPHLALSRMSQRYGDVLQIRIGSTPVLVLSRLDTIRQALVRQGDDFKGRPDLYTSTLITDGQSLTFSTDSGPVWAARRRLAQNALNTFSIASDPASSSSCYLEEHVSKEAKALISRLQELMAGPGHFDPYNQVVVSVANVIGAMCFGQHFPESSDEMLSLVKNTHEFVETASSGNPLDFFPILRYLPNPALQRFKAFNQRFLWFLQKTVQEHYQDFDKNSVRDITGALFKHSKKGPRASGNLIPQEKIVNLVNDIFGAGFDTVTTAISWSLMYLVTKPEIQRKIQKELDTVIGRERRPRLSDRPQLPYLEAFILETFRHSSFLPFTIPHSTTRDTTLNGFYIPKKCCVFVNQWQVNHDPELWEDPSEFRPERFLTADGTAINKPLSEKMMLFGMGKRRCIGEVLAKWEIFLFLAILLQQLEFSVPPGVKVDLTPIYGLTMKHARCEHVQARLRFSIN

Columns and labels:
Plasma [1] = assay: Fraction unbound in mouse plasma at 10 uM after 5 hrs by LC-MS/MS analysis; format: ADME, cell-free
Plasma [2] = assay: Fraction unbound in rat plasma at 10 uM after 5 hrs by LC-MS/MS analysis; format: ADME, cell-free
[3] = target: Adenosine receptor A1 (Mus musculus) (UniProt Q60612); assay: Displacement of [125I]I-AB-MECA from mouse A1 adenosine receptor expressed in HEK293 cells at 10 uM after 60 mins by liquid scintillation counting
Plasma [4] = assay: Fraction unbound in human plasma at 10 uM after 5 hrs by LC-MS/MS analysis; format: ADME, cell-free
Cytochrome P450 2C19 = Cytochrome P450 2C19 (Homo sapiens, UniProt P33261); assay: Inhibition of CYP2C19 in human microsomes preincubated for 5 mins before substrate addition measured after 10 mins by LC/MS/MS analysis; format: ADME
Summary of the method: (§1)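 Human CYP isozyme inhibition screened at 10 μM. An IC50 was determined where inhibition was measurable. Values are the average of n = 2.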

Cytochrome P450 1A2 = Cytochrome P450 1A2 (Homo sapiens, UniProt P05177); assay: Inhibition of CYP1A2 in human microsomes preincubated for 5 mins before substrate addition measured after 10 mins by LC/MS/MS analysis; format: ADME; summary of the method: as §1

Fu (Plasma [1]) [%] | Fu (Plasma [2]) [%] | inhibition [3] [%] | Fu (Plasma [4]) [%] | IC50 (Cytochrome P450 2C19) [µM] | IC50 (Cytochrome P450 1A2) [µM] | SMILES
2.75 | – | – | – | – | – | CNC(=O)[C@@]12C[C@@H]1[C@@H](n1cnc3c(NC)nc(C#Cc4ccc(Cl)s4)nc31)[C@H](O)[C@@H]2O
59.1 | 57.5 | 57 | 61.2 | – | – | CNC(=O)[C@@]12C[C@@H]1[C@@H](n1cnc3c(NC)nc(C#Cc4cnccn4)nc31)[C@H](O)[C@@H]2O
– | – | – | – | > 10 | > 10 | CNC(=O)[C@@]12C[C@@H]1[C@@H](n1cnc3c(NC)nc(C#Cc4ccco4)nc31)[C@H](O)[C@@H]2O
